Earlier results as cited in US9913806B2, “Patches and methods for the transdermal delivery of a therapeutically effective amount of iron” (FE3 MEDICAL, INC., priority 2008, dated 2018).

Conditions: injection of iron dextran administered over a few hours

**Q.** For iron dextran, which “patients who developed allergic type side effects” value is on record?
**A.** 10-15%
